Each structure is given as a SMILES string. Read-outs that look alike come from different tables or passages of the source.

Test [1] concerns Salmonella typhimurium LT2 strain SL 696. Kind of test: MIC of antibiotics in the presence of polymyxin nonapeptide, microtiter plate, S. typhimurium. It counts as cell-based. To be noted: for minimum inhibitory concentration (MIC) of the antibiotic: S. typhimurium SL 696, 18 h. The procedure: (§1) Methods. Smooth Salmonella typhimurium LT2 strain SL 696 (Wilkinson et al 1972 J. Gen. Microbiol. 70,527) was used as indicator organism. It was grown in Luria broth (Miller 1972. Experience in molecular genetics, Cold Spring Harbor Laboratory, New York) at 37° C. in a rotary shaker (220 rpm) into early logarithmic growth phase (Klett 40 units, Klett-Summerson colorimeter, red filter) washed with 0.9% NaCl and resuspended in 0.9% NaCl (final optical density 120 Klett units corresponding to approx. 10^9 cells/ml).
(§2) The following antibiotics were used: novobiocin (Sigma Chemical Co., St. Louis, Mo., United States), fusidic acid (sodium salt; Lovens Kemiske Fabrik, Copenhagen, Denmark), erythromycin ethylsuccinate (Orion Pharmaceuticals, Helsinki, Finland), clindamycin hydrochloride (The Upjohn Company, Kalamazoo, Mich., United States), nafcillin (sodium salt; Wyeth, Great Valley, Philadelphia, Pa., United States), cloxacillin (sodim salt; Astra, Sodertalje, Sweden), and benzylpenicillin (sodium Salt; Novo Industri, Copenhagen, Denmark). Erythromycin ethylsuccinate stock solution was prepared by dissolving 5.5 mg of erythromycin […] with 2 ml of 96% ethanol whereafter deionized water was added to a final volume of 5.5 ml. Other antibiotics were readily dissolved in deionized water.
Experimental procedure: Davis minimal growth medium (Sanderson et al, 1972, Bact. Rev. 36,608) containing glucose (1 g/l), casaminoacids (1 g/l. Difco), tryptophan (20 mg/l), and increasing amounts of a particular antibiotic was inoculated with 10^4 cells per ml of a fresh suspension of indicator bacteria. Aliquots (200 μl) of this inoculated medium were pipetted in wells of a microtiter plate (Titertek, CAT NO. 76-213-05, Flow Laboratories, United States). Each well already contained increasing amounts of the particular polycationic agent in 30 μl of 0.9% NaCl. The plates were sealed with adhesive tape and incubated at 37° C. for 18 h.
Methods. The known compound, polymyxin E nonapeptide (colistin E nonapeptide, Japanese patent specification Nos. 4178/1971 and 51355/1972) having the following formula: [drawing 5] where leu is leucine, thr is threonine, and dab is diaminobutyric acid, was prepared from polymyxin E (colistin) using an enzymatic ficin treatment as described by Chihara et al (Agr. Biol. Chem. 37,2455, 1973). The bacterial strains and the method used in the sensitivity determination has been described in Example 3 and 4.

Test [2] concerns E. coli strain IH 3080 (018:K1). The conditions noted are these: for Number of dead mice: control 14 mice, PMBN-group 16 mice.
Test [3] has the same test system. Kind of test: MIC of antibiotics in the presence of polymyxin nonapeptide, microtiter plate, E. coli. The conditions noted are these: E. coli 018:K1 strain IH 3080; from Table 2. It counts as cell-based. As to the method: as §1
as §2, with “water. […]” for “water.”

As to `CCC[C@@H]1C[C@@H](C(=O)N[C@@H]([C@H]2O[C@H](SC)[C@H](O)[C@@H](O)[C@H]2O)[C@H](C)Cl)N(C)C1.Cl` [Clindamycin, clindamycin hydrochloride], the “minimum inhibitory concentration (MIC) of the antibiotic” value in test [1] (PMBN 0 μg/ml) is reported as 100; in test [1] (PMBN 0.3 μg/ml) it was 30; in test [1] (PMBN 1 μg/ml) it was 10; in test [1] (PMBN 3 μg/ml), 10; in test [1] (PMBN 10 μg/ml), 10; in test [1] (PMBN 30 μg/ml) it was 10. Moreover, the “factor by which PMBN sensitized the strain to the antibiotic” value in test [1] (S. typhimurium strain SL 696, from Table 1) worked out at 10 times; in test [3] it was 10 times. Moreover, the “Number of dead mice” value in test [2] (day 1 after infection, clindamycin 100 mg/kg, PMBN 5 mg/kg i.p.) was 1; in test [2] (day 2 after infection), 11; in test [2] (day 3 after infection) it was 12; in test [2] (day 4 after infection), 12; in test [2] (day 5 after infection), 12. Moreover, the “therapeutic action against the E. coli infection” value in test [2] (mice, clindamycin 100 mg/kg, PMBN 5 mg/kg) is “without any therapeutic action”.

The record behind these values is patent US4510132A, “Compounds for use in antibacterial therapy” (priority 1982, dated 1985).
